# Yeast mating assay 1: variants of the scFv Ab-14

Values reported by Engelhart et al. 2022, doi:10.1038/s41597-022-01779-4 (FLAb copy).

Target peptide (SARS-CoV-2 spike, HR2 region): PDVDLGDISGINAS

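The library (AAYL50) carries one to three amino acid substitutions per variant, with no insertions or deletions. Affinity was read by AlphaSeq, a pooled yeast mating assay with surface-displayed partners. Binding brings cells together so that they mate, and sequencing counts the barcode pairs among the diploids. Each replicate has its own calibration line, from reference interactions of the BCL2 family. Each pool was mated in three replicate cultures.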

Each scFv is VH, three GGGGS repeats, VL, as in the parent Ab-14, and differs from it in the CDRs of the light chain only.
VH: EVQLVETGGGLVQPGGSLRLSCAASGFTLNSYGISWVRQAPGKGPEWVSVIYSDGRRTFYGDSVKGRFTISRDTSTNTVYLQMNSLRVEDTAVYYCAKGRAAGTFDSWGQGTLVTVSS
VL: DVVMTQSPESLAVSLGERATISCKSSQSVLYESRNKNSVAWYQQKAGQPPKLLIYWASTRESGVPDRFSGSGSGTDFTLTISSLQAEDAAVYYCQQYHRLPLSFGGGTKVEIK

Variants are written as CDR1, CDR2 and CDR3 of the light chain (limits as in the source). Parent: KSSQSVLYESRNKNSVA, WASTRES, QQYHRLPLS.
All variants listed here change E32 of the VL, counted from its first residue.
Kd is apparent (estimated from mating counts) and averaged on the log scale over replicates with a signal. Smaller is tighter.
An entry "no signal" has no value in the source: the pair was not observed among the diploids in any replicate. This suggests poor binding but is not conclusive.
Background: pairings of library AAYL50 with three empty control strains gave a value in 18% of cases (median 15 µM, 5th percentile 970 nM). Values in that range, when seen in few replicates, are hard to tell from nonspecific mating.
For reference, the parent read 4.4 nM as the reference entry and 48 nM as a member of this library.

CDR-L1	CDR-L2	CDR-L3	Kd	detected
KNSQSVLYGSRNKNSVA	WASTRYS	QQYHRLPLS	5.4 nM	3 of 3
KSSQSVLYPSRNKNSVA	WAVTRTS	QQYHRLPLS	230 nM	3 of 3
KTSQSVLYTSRNKNSVA	WAWTRES	QQYHRLPLS	1.7 µM	2 of 3
KSSQSVLYHSRNKNSVA	QASTRPS	QQYHRLPLS	22 nM	3 of 3
YSSQSVLYRSWNKNSVA	WASTRES	QQYHRLPLS	83 nM	3 of 3
KSSQSVLYMSRNKNSVE	WALTRES	QQYHRLPLS	19 µM	1 of 3
KSSQSVLYTSMNKNSVA	WGSTRES	QQYHRLPLS	3.3 nM	3 of 3
KSSQSVLYMSRNKNSVD	WAVTRES	QQYHRLPLS	no signal	0 of 3
KSSQSVLYLSRNKNMVA	WASTRES	DQYHRLPLS	no signal	0 of 3
KSSQSVLYSYRNKNSVA	WASTRES	QQYHRLPLA	120 nM	3 of 3
KSSQSVLYLSRNKNSVA	WASTRES	QQYHRLPLS	62 nM	3 of 3
KSSQSVLYQSRNKNSVA	WASTAES	QQWHRLPLS	30 µM	1 of 3
KSSQSVLQPSRNKNSVV	WASTRES	QQYHRLPLS	no signal	0 of 3
KSLQSVLLLSRNKNSVA	WASTRES	QQYHRLPLS	82 nM	3 of 3
KGSQSVLYMSRNKNSVA	WASTRES	RQYHRLPLS	1.3 µM	3 of 3
KSSQSVLYYSRNKNSVA	WASGRES	QQYHRLPLS	970 µM	1 of 3
KSSQSVLYPSRNKNSTA	WASTREI	QQYHRLPLS	19 µM	3 of 3
KSSQSVSYWSRNKNSVA	WASTRES	QQYHRLRLS	no signal	0 of 3
KSSQSVLYPSRNANSVA	WASTRES	QQYHRLGLS	5.4 nM	3 of 3
KSSQSVLYWSRNKNSVA	WASTRES	GLYHRLPLS	no signal	0 of 3
KSSQSVTYISRNKNSVA	WASYRES	QQYHRLPLS	340 nM	2 of 3
KSSQSVLYVSRNKNSVA	WASTRES	LQYHRLRLS	no signal	0 of 3
KSSESVLYVSRNKNSVA	WASTRES	QQYHRTPLS	19 µM	1 of 3
KSSQSVLYDSQNKNSVA	WASTRES	QQYHQLPLS	2.4 nM	3 of 3
KSSQSVLYTSRNKNSVA	WASTRED	NQYHRLPLS	210 µM	1 of 3
KSSQSVLYCSRNKNSVA	WASHRES	QQYHRFPLS	no signal	0 of 3
KSSQSHLYNSRNKNSVA	WASTRPS	QQYHRLPLS	250 nM	3 of 3
CSSQSVLYGSWNKNSVA	WASTRES	QQYHRLPLS	no signal	0 of 3
KSSQSVLYFSRNKNSVA	WASTRES	QQYHRLIPS	120 nM	3 of 3
KSSQSVLYASRNKNSEA	WASTRES	QQYSRLPLS	6.2 µM	2 of 3
KSSQSVLQSSRNKMSVA	WASTRES	QQYHRLPLS	56 nM	3 of 3
KSSQSVLYGSRNKNTVA	WASTRES	YQYHRLPLS	no signal	0 of 3
KSSQSVLYQSRCKNSVA	WASTREE	QQYHRLPLS	8.1 nM	3 of 3
KSSQSVLYYSRNKNSVA	WATTGES	QQYHRLPLS	no signal	0 of 3
KSSQSVLYCERTKNSVA	WASTRES	QQYHRLPLS	no signal	0 of 3
KDSQSVLYQSRNKNSVA	WASTRES	QQYDRLPLS	19 nM	3 of 3
KSSQSVLYSHRNKNSVA	WASTRES	PQYHRLPLS	no signal	0 of 3
KSSQSVLYAQRNKNQVA	WASTRES	QQYHRLPLS	850 nM	3 of 3
KSSQSVLYVSRNQNSVA	WASNRES	QQYHRLPLS	68 µM	2 of 3
KSSQSVLYISRNKNSVA	VASTRES	QQYRRLPLS	no signal	0 of 3
KSSQSVLYISRNKNSVA	WASTRRS	QQYHRLPLS	140 µM	1 of 3
KDSQSLLYDSRNKNSVA	WASTRES	QQYHRLPLS	2.5 nM	3 of 3
KSSQSVLYWSRHKNSVA	WVSTRES	QQYHRLPLS	62 µM	2 of 3
KSSLSVCYWSRNKNSVA	WASTRES	QQYHRLPLS	15 nM	3 of 3
KSSQSVPYVSRNKNSVA	WASTREI	QQYHRLPLS	32 nM	3 of 3
KSIQSVLYTSRNKNSVA	WASTRES	QQYHRVPLS	15 µM	3 of 3
KSSQSVLYNSRNKLSVA	WASTRES	QQYHRVPLS	350 nM	3 of 3
MSCQSVLYCSRNKNSVA	WASTRES	QQYHRLPLS	no signal	0 of 3
KSSQSVLCTSRNKNYVA	WASTRES	QQYHRLPLS	7.9 µM	1 of 3
KSSQSVLYISRNKNSVA	WASTRES	QQYHRLPLS	2.2 µM	3 of 3
KSSQSVLYKSRNKNSVA	WASTRES	QQYHRLPES	80 nM	3 of 3
KSSQSVLYNSRNWNSVA	WASTRES	QQWHRLPLS	8.7 nM	3 of 3
KSSQSVLYAVRNKNSVA	WASTRAS	QQYHRLPLS	79 nM	3 of 3
KSSQSVLYDSRNKNSVA	WASTRPS	QQYHRKPLS	8.1 µM	3 of 3
KSGQSVLYRSRNKNSYA	WASTRES	QQYHRLPLS	no signal	0 of 3
KSSQSVLGVSRNKNSVD	WASTRES	QQYHRLPLS	2.6 µM	2 of 3
KSSQSVLYKSRNKNSVA	WASTRES	QCYHRLPLS	210 nM	3 of 3
KSSQSVLYGSRNKNSVA	WASTFES	QQYHELPLS	no signal	0 of 3
KSSQSVLYWSRNKNGVA	WASTRES	QQYHNLPLS	no signal	0 of 3
KSSQSVLYASRNKNSYA	WCSTRES	QQYHRLPLS	27 µM	1 of 3
KSSQSVYYDSRNKNPVA	WASTRES	QQYHRLPLS	12 nM	3 of 3
KSSQSVLYYSRNKNSGA	WASTRES	QQYHQLPLS	no signal	0 of 3
KSSQSVLYPSRNKNWVA	WASTRES	QQYHRLPLS	320 nM	1 of 3
KSCQSVLYHSRNKNSVA	WASTRES	QYYHRLPLS	32 µM	1 of 3
KSSFSVLYTSRNKNSVA	WASTRES	QQYHRLMLS	no signal	0 of 3
KSSQSVLYSSRNKNSRA	WASTRES	QQYHRLPRS	8.4 µM	3 of 3
KSSASVLFVSRNKNSVA	WASTRES	QQYHRLPLS	650 nM	3 of 3
KSSQSVLYRSRNKNSVI	WASTKES	QQYHRLPLS	14 nM	3 of 3
KSSQSVLYTSRNKNSVA	WAITRES	QQYHKLPLS	10 nM	3 of 3
KSSQSVLYVSRNKNSVA	WASTREA	QQYHQLPLS	800 nM	3 of 3
VSSQSVLYDSRNKNSFA	WASTRES	QQYHRLPLS	130 µM	2 of 3
KSSQSVLYISRNKNVVA	WASTRES	QQMHRLPLS	no signal	0 of 3
KSSQSVLYFSRNKNSVA	WASTRES	QQYHHYPLS	900 nM	3 of 3
KSSQPVLYLSRNKNSVA	WASTTES	QQYHRLPLS	no signal	0 of 3
KSSQSVLYKSRNKNSVA	WASTRSS	QQYHRLPLS	41 µM	2 of 3
KSSQSVLYMSRNKNSVA	WNSTRES	QQNHRLPLS	no signal	0 of 3
FSSQSVLYHSRNKNSVA	WASTRES	IQYHRLPLS	840 nM	2 of 3
WSSQSVLYPSRNKNSVA	WASTRES	QQYHRLPLS	600 nM	1 of 3
KSSLSVLYKSRNKNSVA	WASTRES	QQYHRLPES	310 nM	3 of 3
KSSQSVLYASRNKNSVA	WASFRNS	QQYHRLPLS	no signal	0 of 3

Again, the first 4 entries without any signal:

| CDR-L1 | CDR-L2 | CDR-L3 | Kd | detected |
|---|---|---|---|---|
| KSSQSVLYMSRNKNSVD | WAVTRES | QQYHRLPLS | no signal | 0 of 3 |
| KSSQSVLYLSRNKNMVA | WASTRES | DQYHRLPLS | no signal | 0 of 3 |
| KSSQSVLQPSRNKNSVV | WASTRES | QQYHRLPLS | no signal | 0 of 3 |
| KSSQSVSYWSRNKNSVA | WASTRES | QQYHRLRLS | no signal | 0 of 3 |